Experimental data published in patent US5541182A, “Benzodiazepine aryl urea derivatives” (Yamanouchi Pharmaceutical Co., Ltd., priority 1990, dated 1996).

How the values were obtained:
[1] = test system: benzodiazepine receptor; settings: read-out: IC50, binding to the benzodiazepine receptor; cited from Eur. J. Pharmacol., 162, 273-280, 1989; cited from earlier work
[2] = test system: gastric-acid secretion caused by the stimulus of pentagastrin; experiment: Depression of gastric-acid secretion caused by the stimulus of pentagastrin; settings: SD rats, urethane anesthetized, i.v. test drug, pentagastrin 15 μg/kg/hr i.v.

## Cc1cccc(NC(=O)N[C@@H]2N=C(c3ccccc3)c3ccccc3N(C)C2=O)c1
[1]
  IC50: 1200 nM
[2]
  Depression of gastric-acid secretion; ED50: 4.2 µmol/kg
